# Ab-91 heavy chain CDR variants: yeast mating affinities

The target is the same throughout: PDVDLGDISGINAS, from the HR2 region of SARS-CoV-2 spike.

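The starting antibody came from a phage panning campaign against this peptide. The library (AAYL51) carries one to three amino acid substitutions per variant, with no insertions or deletions. Affinity was read by AlphaSeq, a pooled yeast mating assay with surface-displayed partners. Mating (16 h, 30 °C) was followed by selection of diploids and sequencing of their barcodes. Read counts were normalised to the haploid input and turned into Kd by a linear fit to BCL2-family pairs of known affinity, for each replicate. There are three technical replicates.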

Ab-91 is the parent antibody, in scFv form: VL, then three GGGGS repeats, then VH. The light chain is unchanged in all variants.
VL: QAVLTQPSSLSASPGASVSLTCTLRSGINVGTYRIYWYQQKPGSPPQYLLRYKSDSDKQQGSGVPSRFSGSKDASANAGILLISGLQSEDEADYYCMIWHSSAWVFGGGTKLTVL
VH: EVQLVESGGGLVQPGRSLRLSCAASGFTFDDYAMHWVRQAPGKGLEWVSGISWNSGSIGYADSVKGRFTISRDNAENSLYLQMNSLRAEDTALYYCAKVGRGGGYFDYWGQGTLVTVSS

Each variant's VH is given in full.
Affinities are written as log10 Kd with Kd in nM; a lower number is a better binder.
The mean shown is taken over the replicates in which the pair was detected.
An entry "ND" has no value in the source: the pair was not observed among the diploids in that replicate. This suggests poor binding but is not conclusive.
Parent in this assay: reference entry 1.86, copy in this library 0.88.

VH | log10 Kd (nM) by replicate | mean, log10 nM | signal with controls
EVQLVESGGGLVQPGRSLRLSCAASGFTFDNYGMHWVRQAPGKGLEWVSGISWNSGSIGYADSVKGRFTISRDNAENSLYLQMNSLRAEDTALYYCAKVGRGEGYFDYWGQGTLVTVSS | ND / 4.59 / ND | 4.59 | 0/9
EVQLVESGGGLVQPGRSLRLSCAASGFTFDFYAMHWVRQAPGKGLEWVSGISWHSGSIGYADSVVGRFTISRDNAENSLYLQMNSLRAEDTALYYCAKVGRGGGYFDYWGQGTLVTVSS | ND / ND / ND | ND | 0/9
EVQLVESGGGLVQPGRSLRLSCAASGFTFDDYAMHWVRQAPGKGLEWVSGISWNSCSIQYADSVFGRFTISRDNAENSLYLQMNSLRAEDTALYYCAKVGRGGGYFDYWGQGTLVTVSS | ND / ND / ND | ND | 0/9
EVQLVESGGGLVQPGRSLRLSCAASGFTFDDYAMHWVRQAPGKGLEWVSGISWNSGSIGYADSVKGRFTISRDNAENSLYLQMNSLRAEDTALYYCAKVGRGGGVFDYWGQGTLVTVSS | ND / ND / ND | ND | 0/9
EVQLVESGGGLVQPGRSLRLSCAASGFTFDDYAMHWVRQAPGKGLEWVSGISWNSPSAGYADSVSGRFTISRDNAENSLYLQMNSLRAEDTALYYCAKVGRGGGYFDYWGQGTLVTVSS | 5.42 / 4.99 / 4.05 | 4.82 | 3/9 (5.04)
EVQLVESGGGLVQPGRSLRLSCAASGFTFDGYAMHWVRQAPGKGLEWVSGISWNSGSICYADSVKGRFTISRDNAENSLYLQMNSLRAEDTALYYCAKVGREGGYFDYWGQGTLVTVSS | 4.79 / 6.39 / 5.28 | 5.49 | 3/9 (5.38)
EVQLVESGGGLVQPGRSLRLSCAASGFTFDDYAMHWVRQAPGKGLEWVSGIHWNSGSIGYACSIKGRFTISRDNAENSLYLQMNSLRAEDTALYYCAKVGRGGGYFDYWGQGTLVTVSS | ND / ND / ND | ND | 1/9 (3.83)
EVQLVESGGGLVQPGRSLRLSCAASGFTFDDGAMHWVRQAPGKGLEWVSGISWNSGQIGYADSVKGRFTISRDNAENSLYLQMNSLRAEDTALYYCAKVGRGGGYFDLWGQGTLVTVSS | 3.75 / 4.14 / 3.80 | 3.90 | 5/9 (4.52)
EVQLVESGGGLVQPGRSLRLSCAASGFTFDDYAMHWVRQAPGKGLEWVSGSSWNSGSIGYADSVKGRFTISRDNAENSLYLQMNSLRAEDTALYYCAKVQRGGGYFDYWGQGTLVTVSS | ND / ND / ND | ND | 0/9
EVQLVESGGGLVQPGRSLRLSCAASGFTVDWYAMHWVRQAPGKGLEWVSGISWNSGSIGYADSVSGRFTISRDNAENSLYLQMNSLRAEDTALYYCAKVGRGGGYFDYWGQGTLVTVSS | ND / ND / ND | ND | 2/9 (4.40)
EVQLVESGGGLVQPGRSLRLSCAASGFHFDDYAMHWVRQAPGKGLEWVSGISWNSGSIGWADTVKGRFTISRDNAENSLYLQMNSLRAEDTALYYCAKVGRGGGYFDYWGQGTLVTVSS | 5.32 / ND / ND | 5.32 | 2/9 (4.81)
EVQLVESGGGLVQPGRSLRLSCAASGFTFDDYAQHWVRQAPGKGLEWVSGISWNSGSIGYAWSVKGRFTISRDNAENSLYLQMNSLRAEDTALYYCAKVGRGGGYFDPWGQGTLVTVSS | ND / ND / 3.92 | 3.92 | 4/9 (4.26)
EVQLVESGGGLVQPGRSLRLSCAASGFTRDDYAMHWVRQAPGKGLEWVSGISWNSGSIKYADSVFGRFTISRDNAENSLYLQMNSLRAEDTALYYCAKVGRGGGYFDYWGQGTLVTVSS | 4.27 / 4.79 / ND | 4.53 | 1/9 (3.91)
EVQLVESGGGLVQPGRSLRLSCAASGFTFDDWALHWVRQAPGKGLEWVSGISWNSGSIGYADSVKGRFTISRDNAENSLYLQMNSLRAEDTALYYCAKVGRGGGYFDYWGQGTLVTVSS | 4.69 / ND / ND | 4.69 | 0/9
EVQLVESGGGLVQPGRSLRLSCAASGMTFDDYAMHWVRQAPGKGLEWVSGISWNSGSIGYADSVKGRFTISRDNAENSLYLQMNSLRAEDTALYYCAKDGLGGGYFDYWGQGTLVTVSS | 4.04 / ND / 3.48 | 3.76 | 2/9 (4.03)
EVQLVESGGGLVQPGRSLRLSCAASGFTFDDYAQHWVRQAPGKGLEWVSGISWNSGSIGVADSVKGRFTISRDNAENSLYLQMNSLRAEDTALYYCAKVGRGGGYYDYWGQGTLVTVSS | ND / ND / 4.54 | 4.54 | 2/9 (4.30)
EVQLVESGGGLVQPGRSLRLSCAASAFTFDDYAMHWVRQAPGKGLEWVSGISWNSGSIHYADSVKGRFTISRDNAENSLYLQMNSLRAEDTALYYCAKVGRGGGYTDYWGQGTLVTVSS | ND / ND / ND | ND | 0/9
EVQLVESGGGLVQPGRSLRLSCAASGFTFDDYANHWVRQAPGKGLEWVSGISWNSGTIGYADSVKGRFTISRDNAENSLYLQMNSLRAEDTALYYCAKVGRGGGYFDYWGQGTLVTVSS | 6.35 / 5.53 / 3.97 | 5.28 | 2/9 (5.50)
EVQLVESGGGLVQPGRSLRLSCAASGFTFKDYAMHWVRQAPGKGLEWVSGIKWNSGSIGYADKVKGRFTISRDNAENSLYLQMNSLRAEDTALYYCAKVGRGGGYFDYWGQGTLVTVSS | 4.58 / ND / ND | 4.58 | 7/9 (4.91)
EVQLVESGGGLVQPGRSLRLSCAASGFTFDDYWMHWVRQAPGKGLEWVSGISWNSGSIGYADSVKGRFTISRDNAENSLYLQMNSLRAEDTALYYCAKVYRGGGYFMYWGQGTLVTVSS | 4.50 / 6.26 / 5.11 | 5.29 | 5/9 (4.68)
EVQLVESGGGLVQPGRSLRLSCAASGFTFDDYAMEWVRQAPGKGLEWVSGISWNSGSIGYADSVFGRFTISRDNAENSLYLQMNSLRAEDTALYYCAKVGRRGGYFDYWGQGTLVTVSS | 4.60 / ND / ND | 4.60 | 3/9 (4.29)
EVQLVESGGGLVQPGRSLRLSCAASLFTFDDYAMHWVRQAPGKGLEWVSGISWPSGFIGYADSVKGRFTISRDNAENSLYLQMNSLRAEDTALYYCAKVGRGGGYFDYWGQGTLVTVSS | 3.82 / ND / ND | 3.82 | 3/9 (3.93)
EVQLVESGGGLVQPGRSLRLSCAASGFTFDDYAMHWVRQAPGKGLEWVSWISWNSGSIGYAGSVKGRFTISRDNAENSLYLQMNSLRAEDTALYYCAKVGRGVGYFDYWGQGTLVTVSS | ND / 3.75 / ND | 3.75 | 4/9 (3.41)

Nonspecific signal, from three strains lacking the peptide, appeared in 21% of pairings of library AAYL51, centred on 4.54 (5% of these signals below 3.26); values are not corrected for it. For each scFv, signals with the empty controls are counted beside the result, with their mean in brackets.

Values reported by Engelhart et al. 2022, doi:10.1038/s41597-022-01779-4 (FLAb copy).